# Properties, as collected for the OPERA models

The melting point is given in degrees Celsius. The boiling point refers to atmospheric pressure (760 mmHg), by the definition of the set. The octanol-water partition coefficient is given as log10; larger values mean a more lipophilic compound. Solubility in water is on a log10 molar scale (set defined at 25 °C). Vapor pressure is log10 of mmHg; the set covers 15 to 30 °C, mostly 20 to 25 °C. Henry's law constant (air-water partitioning) is log10 of atm·m3/mol, nominally at 25 °C. The unbound fraction in human plasma runs from 0 (all bound) to 1 (all free). Clint is human hepatic intrinsic clearance in µL/min per million cells; 0 means that no clearance was seen. "n/a" marks a cell with nothing listed here.

compound,name,mp (°C),boiling point (°C),logP (octanol/water),water solubility (log10 mol/L),log vapor pressure (log10 mmHg),Henry's law constant (log10 atm·m3/mol),fu,intrinsic clearance (µL/min/10^6 cells)
C[C@]12C=CC(=O)C=C1CC[C@@H]1[C@@H]2CC[C@]2(C)OC(=O)CC[C@@H]12,Testolactone,n/a,n/a,3.7,-4.078,n/a,n/a,0.15,n/a
CCON=C(CC)C1=C(O)CC(c2c(C)cc(C)cc2C)CC1=O (centres undefined),Tralkoxydim,n/a,n/a,n/a,-4.73,n/a,-9.705,0.169,0
OC(c1ccc(Cl)cc1)(c1ccc(Cl)cc1)C(Cl)(Cl)Cl,Dicofol,n/a,370,n/a,n/a,n/a,n/a,n/a,27.8
C=CCl,Vinyl chloride,n/a,n/a,1.46,-1.105,n/a,n/a,0.5925,29.17
c1ccc2c(c1)-c1cccc3cccc-2c13,Fluoranthene,n/a,n/a,n/a,n/a,n/a,n/a,0.01409,8.064
CC(C)CC(=O)C1C(=O)c2ccccc2C1=O,"2-Isovaleryl-1,3-indanedione",n/a,n/a,n/a,-3.36,-5.162,n/a,n/a,n/a
CCCCCCCCOC(=O)c1ccc(C(=O)OCCCCCCCC)c(C(=O)OCCCCCCCC)c1,Tri-n-octyl trimellitate,-57,343,5.5,n/a,n/a,n/a,n/a,n/a
CCCCCCCCO[PH](=O)OCCCCCCCC,Dioctyl phosphonate,-12.3,n/a,n/a,-3.812,n/a,n/a,n/a,n/a
Clc1c(Cl)c(Cl)c(-c2ccccc2)c(Cl)c1Cl,"2,3,4,5,6-Pentachlorobiphenyl",124,n/a,n/a,n/a,-4.595,n/a,n/a,n/a
CC(C)COP(=S)(OCC(C)C)SCC(C)C(=O)O (centres undefined),n/a,n/a,n/a,3.9,-4.624,-6.161,n/a,n/a,n/a
O=C(O)C(F)(F)C(F)(F)C(F)(F)C(F)(F)C(F)(F)C(F)(F)C(F)(F)C(F)(F)C(F)(F)F,Perfluorodecanoic acid,n/a,n/a,n/a,-2.648,n/a,n/a,0.00142,0
CO[C@]12C[C@@H](COC(=O)c3cncc(Br)c3)CN(C)[C@@H]1Cc1cn(C)c3cccc2c13,Nicergoline,n/a,n/a,3.3,-4.581,n/a,n/a,0.05,n/a
COP(=O)(NC(C)=O)SC (centres undefined),Acephate,n/a,n/a,n/a,n/a,n/a,n/a,0.8684,0
CCOc1nc(NC)nc(NC(=O)NS(=O)(=O)c2ccccc2C(=O)OC)n1,Ethametsulfuron-methyl,n/a,316.8,n/a,n/a,-8.312,-10.92,n/a,n/a
CCOP(=S)(OCC)Oc1ccc(Cl)cc1Cl,Dichlofenthion,n/a,n/a,n/a,-6.11,-3.252,n/a,n/a,n/a
CCCCSP(=O)(SCCCC)SCCCC,Tribufos,n/a,n/a,n/a,n/a,n/a,n/a,0.06742,125.1
COC(=O)NS(=O)(=O)c1ccc(N)cc1,Asulam,n/a,n/a,n/a,n/a,n/a,n/a,0.456,1.8
C[C@]12CCC3=C4CCC(=O)C=C4CC[C@H]3[C@@H]1CC[C@@H]2O,"9,10-Dehydro-19-nortestosterone",179.8,n/a,2.4,-3.71,-10.87,n/a,n/a,n/a
Cc1ccc(N)cc1Cl,3-chloro-4-methylaniline,n/a,n/a,n/a,n/a,n/a,n/a,0.145,65.3
CCCN(CCC)c1c([N+](=O)[O-])cc(S(N)(=O)=O)cc1[N+](=O)[O-],Oryzalin,n/a,n/a,n/a,-4.85,-8.011,n/a,0.00375,20.2
COCC(=O)N(c1c(C)cccc1C)C(C)C(=O)OC (centres undefined),Metalaxyl,n/a,295.9,n/a,n/a,n/a,n/a,0.7308,1.58
CCCCCC(CCC)COC(=O)c1ccccc1C(=O)OCC(CCC)CCCCC (centres undefined),Bis(2-propylheptyl) phthalate,-48,n/a,n/a,n/a,-7.557,n/a,n/a,n/a
Nc1ccc(Oc2ccc(N)cc2)cc1,"4,4'-Oxydianiline",n/a,n/a,n/a,-3.62,n/a,n/a,0.3284,n/a
CC(C)(c1ccc(OP(=O)(Oc2ccccc2)Oc2ccccc2)cc1)c1ccc(OP(=O)(Oc2ccccc2)Oc2ccccc2)cc1,"2,2-Bis[4-[bis(phenoxy)phosphoryloxy]phenyl]propane",13.5,n/a,n/a,-6.222,-5.061,n/a,n/a,n/a
CC1CC(CC2CCC(N)C(C)C2)CCC1N (centres undefined),Bis(4-amino-3-methylcyclohexyl)methane,n/a,342,2.5,-1.821,-3.222,n/a,n/a,n/a
O=c1oc2ccccc2c(O)c1C(CC(O)c1ccc(-c2ccc(Br)cc2)cc1)c1ccccc1 (centres undefined),Bromadiolone,202,n/a,n/a,-4.46,-9.796,n/a,n/a,n/a

Extract of 2 entries:

compound	name	mp (°C)	boiling point (°C)	logP (octanol/water)	water solubility (log10 mol/L)	log vapor pressure (log10 mmHg)	Henry's law constant (log10 atm·m3/mol)	fu	intrinsic clearance (µL/min/10^6 cells)
CCOP(=S)(OCC)Oc1ccc(Cl)cc1Cl	Dichlofenthion	n/a	n/a	n/a	-6.11	-3.252	n/a	n/a	n/a
Nc1ccc(Oc2ccc(N)cc2)cc1	4,4'-Oxydianiline	n/a	n/a	n/a	-3.62	n/a	n/a	0.3284	n/a

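OPERA's authors assembled the values from existing databases and did not measure them anew. One number stands for a compound and property, with no spread given. Method, purity and exact conditions of the single measurements are not given. Where a salt, mixture or single isomer is drawn, the source does not say that exactly this form was tested. Some upstream entries may be estimates or bounds without being marked so.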

Source: data files of OPERA 2.9 (Mansouri et al.), github.com/kmansouri/OPERA.